Protein sequences, listed by entry. Tags and fused reporters are not part of them.
UniProt P27338, whole entry: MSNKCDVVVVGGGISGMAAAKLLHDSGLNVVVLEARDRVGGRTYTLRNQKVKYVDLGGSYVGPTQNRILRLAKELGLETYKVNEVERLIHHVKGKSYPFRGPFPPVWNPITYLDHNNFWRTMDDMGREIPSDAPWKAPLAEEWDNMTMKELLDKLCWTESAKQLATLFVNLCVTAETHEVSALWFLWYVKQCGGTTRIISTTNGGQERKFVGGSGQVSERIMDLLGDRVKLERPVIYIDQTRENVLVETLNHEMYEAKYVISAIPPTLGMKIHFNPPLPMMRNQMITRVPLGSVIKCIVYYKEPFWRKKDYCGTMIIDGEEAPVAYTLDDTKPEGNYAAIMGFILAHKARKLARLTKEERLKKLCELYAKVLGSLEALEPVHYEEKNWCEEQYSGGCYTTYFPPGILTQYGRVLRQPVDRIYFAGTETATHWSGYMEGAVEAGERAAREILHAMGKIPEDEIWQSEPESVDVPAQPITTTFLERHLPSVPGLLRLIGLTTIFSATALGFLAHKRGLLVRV

According to ChEMBL document CHEMBL1944614, “A scaffold hopping approach to identify novel monoamine oxidase B inhibitors” (Bioorg Med Chem Lett, 2012):

Biological target: Amine oxidase [flavin-containing] B (Homo sapiens, UniProt P27338)
Test: Inhibition of human recombinant MAOB using kynuramine as substrate by fluorimetry

## CN(C)c1ccc(/C=C2\Oc3cc(O)ccc3C2=O)cc1
  IC50: 242 nM
